Values of other authors in patent US20240350590A1, “COMPOSITION FOR ORALLY ADMINISTERED FORMULATION CONTAINING GLP-1 ANALOGUE” (HANMI PHARM. CO., LTD., priority 2021, published 2024).

Settings: longer than that of GLP-1

## exendin-4
  half-life in the body: 2 to 4 h
